{"source": "ChEMBL document CHEMBL4673173", "about": "“Cyrene(TM) is a green alternative to DMSO as a solvent for antibacterial drug discovery against ESKAPE pathogens” (RSC Med Chem, 2020)", "key": {"[1]": {"test_system": "Klebsiella pneumoniae", "settings": "700603"}, "[2]": {"test_system": "Klebsiella pneumoniae", "settings": "700603", "remark": "listed apart in the source"}, "[3]": {"test_system": "Acinetobacter baumannii", "settings": "ATCC 19606 = CIP 70.34 = JCM 6841"}, "[4]": {"test_system": "Acinetobacter baumannii", "settings": "ATCC 19606 = CIP 70.34 = JCM 6841", "remark": "listed apart in the source"}, "[5]": {"test_system": "Pseudomonas aeruginosa", "settings": "ATCC 27893"}, "[6]": {"test_system": "Pseudomonas aeruginosa", "settings": "ATCC 27893", "remark": "listed apart in the source"}, "[7]": {"test_system": "Escherichia coli", "settings": "ATCC 25922"}, "[8]": {"test_system": "Escherichia coli", "settings": "ATCC 25922", "remark": "listed apart in the source"}, "[9]": {"test_system": "Enterococcus faecalis", "settings": "ATCC 51299"}, "[10]": {"test_system": "Staphylococcus aureus", "settings": "ATCC 43300"}, "[11]": {"test_system": "Staphylococcus aureus", "settings": "ATCC 43300", "remark": "listed apart in the source"}, "[12]": {"test_system": "Enterococcus faecalis", "settings": "ATCC 51299", "remark": "listed apart in the source"}}, "note": "Active and inactive are the calls of the source. The rule behind the calls is not given here.", "data": [{"sequence": "COLISTIN SULFATE", "values": [{"measurement": "MIC80", "setting": "[1]", "value": 1.6, "unit": "µM"}, {"measurement": "MIC80", "setting": "[2]", "value": 1.6, "unit": "µM"}, {"measurement": "MIC80", "setting": "[3]", "value": 1.6, "unit": "µM"}, {"measurement": "MIC80", "setting": "[4]", "value": 1.6, "unit": "µM"}, {"measurement": "MIC80", "setting": "[5]", "value": 3.1, "unit": "µM"}, {"measurement": "MIC80", "setting": "[6]", "value": 3.1, "unit": "µM"}, {"measurement": "MIC80", "setting": "[7]", "value": 0.78, "unit": "µM"}, {"measurement": "MIC80", "setting": "[8]", "value": 0.78, "unit": "µM"}, {"measurement": "MIC80", "setting": "[9]", "value": "inactive"}, {"measurement": "MIC80", "setting": "[10]", "value": "inactive"}, {"measurement": "MIC80", "setting": "[11]", "value": "inactive"}, {"measurement": "MIC80", "setting": "[12]", "value": "inactive"}]}]}
